Legend:
human lymphocytes = details: 10 mM pretreatment for 48 hours, 10 μM SM; 48 hours after exposure; cited from earlier work
Water solubility = details: 20° C.; 1 g dissolves in 11 ml
[1] = Reactivity with radiolabelled sulphur mustard in THF, TLC autoradiography; details: one hour after addition of 35S-SM
[2] = tested on: SVK-14 human keratinocyte cells
[3] = tested on: SVK-14 human keratinocyte cells; details: treatment without SM

Compound: L-oxothiazolidine-4-carboxylate
- more viable than SM only treated cells (human lymphocytes): 20%

Compound: 2 Pentafluorobenzyl Hexaminium Bromide
- Water solubility (Water solubility): 90 mg/mL
- free H (SM) on TLC autoradiograph [1]: No free H is present

Compound: N[C@@H](CCC(=O)N[C@@H](CS)C(=O)NCC(=O)O)C(=O)O
- increase in viability compared to SM control ([2]; 8 mM GSH singly, 72 hour time-point): 19.8%
- increase in viability compared to the SM control ([2]; 16 mM GSH, 72 hours, p<0.001): 20.6%
- cellular function measured by neutral red uptake ([2]; treatment without SM, over the course of the experiment): nor alter cellular function
- growth of the cells (crystal violet assay) compared to control [3]: did not significantly alter the growth
